Drawing on ChEMBL document CHEMBL5137086, “Discovery of 1-(Hetero)aryl-β-carboline Derivatives as IDO1/TDO Dual Inhibitors with Antidepressant Activity” (J Med Chem, 2022), this text covers IC50 for one compound.

Amino acid sequences for entries named in this document (tags omitted). A change or cut given only in a name is not applied to a line headed by its entry.
UniProt P48775: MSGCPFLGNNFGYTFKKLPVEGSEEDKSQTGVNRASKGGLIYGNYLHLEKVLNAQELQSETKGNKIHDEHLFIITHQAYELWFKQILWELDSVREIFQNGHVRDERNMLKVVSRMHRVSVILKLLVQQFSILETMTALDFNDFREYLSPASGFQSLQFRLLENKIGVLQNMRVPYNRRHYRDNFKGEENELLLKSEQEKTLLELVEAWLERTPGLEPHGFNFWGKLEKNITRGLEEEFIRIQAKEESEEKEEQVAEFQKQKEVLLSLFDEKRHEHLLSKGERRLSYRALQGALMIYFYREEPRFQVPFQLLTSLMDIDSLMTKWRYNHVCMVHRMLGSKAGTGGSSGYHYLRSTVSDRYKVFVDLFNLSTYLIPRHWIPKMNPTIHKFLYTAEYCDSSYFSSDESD

The target in the assay is Tryptophan 2,3-dioxygenase (Homo sapiens, UniProt P48775). As to the kind of experiment: Inhibition of TDO (unknown origin) assessed as reduction in N-formylkynurenine formation using L-tryptophan as substrate incubated for 75 mins by UV absorbance based analysis.

In general, IC50 refers to the concentration that gives 50% inhibition. As to `Fc1ccc2c(/C=C/c3cccnc3)c[nH]c2c1`, the concentration for half-maximal inhibition (IC50) was found to be 350 nM.
